In ChEMBL document CHEMBL5104178, “Nitroimidazopyrazinones with Oral Activity against Tuberculosis and Chagas Disease in Mouse Models of Infection” (J Med Chem, 2022):

How the values were obtained:
[1] = tested on: Mycobacterium tuberculosis; assay: Substrate activity at Mycobacterium tuberculosis Ddn expressed in Escherichia coli BL21 (DE3) assessed as oxidation of F420H2 by measuring Km by spectrophotometric analysis
[2] = tested on: Mycobacterium tuberculosis; assay: Substrate activity at Mycobacterium tuberculosis Ddn expressed in Escherichia coli BL21 (DE3) assessed as oxidation of F420H2 by measuring Kcat/Km by spectrophotometric analysis
[3] = tested on: Mycobacterium tuberculosis; assay: Substrate activity at Mycobacterium tuberculosis Ddn expressed in Escherichia coli BL21 (DE3) assessed as oxidation of F420H2 by measuring Kcat by spectrophotometric analysis

O=c1c2nc([N+](=O)[O-])cn2ccn1Cc1ccc(OC(F)(F)F)cc1
Km [1]: 2 µM
kcat/Km [2]: 1640 M⁻¹ s⁻¹
kcat [3]: 3.3 10^-3/s
